# From PubChem BioAssay AID435005 (Broad Institute, 2010)
# Only a part is listed here, and it is no random draw. The source made the active and inactive calls.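 The calls were made as follows: active = Every replicate reaches about 75%, or at least half do and their mean reaches it too (limit read from the data); inconclusive = At least half of replicates reach the limit but their mean does not; inactive = Under half of replicates reach the limit.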
# Test: inhibitors of cytokine-induced beta cell apoptosis, primary screen, luminescence (AID 435005);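 also: 0% = cytokine-treated negative control wells and 100% = positive control rescue; higher means more ATP so stronger rescue from cytokine killing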
# Details: INS-1E cytokine-induced death, ATP luminescence, 48 h; hits give high values; percent of positive-control rescue, neutral wells zero; concentration not given here
row,Compound,protection from apoptosis
1,C[N+]1=C2C=CC=CC=C2SC12C([N+](=O)[O-])=CC([N+](=O)[O-])=C[C-]2[N+](=O)[O-] (configuration not stated),active: 104%
2,O=[N+]([O-])c1cc([N+](=O)[O-])c(-c2ccn[nH]2)s1,active: 106%
